Test: Measurement of phosphate binding M4: 1 g in 25 ml 40 mmol l^-1 phosphate buffer, pH 3-8 (Examples 3 and 4)
Conditions: Table 10 (Example 4)

Anhydrous calcium sulphate [Anhydrous CaSO4]
Percentage phosphate bound at pH 3 (pH 3): 2% | Percentage phosphate bound at pH 5 (pH 5): 7% | Percentage phosphate bound at pH 7 (pH 7): 47% | Percentage phosphate bound at pH 8 (pH 8): 55%

Source: patent publication US20140120180A1, “METAL COMPOUNDS MIXED OR SULPHATED, AS PHOSPHATE BINDERS” (CYTOCHROMA DEVELOPMENT INC., priority 1997, published 2014)
